# Reference: PubChem BioAssay AID1452 (National Center for Advancing Translational Sciences (NCATS), 2008)
# By UniProt entry, the sequences of proteins in these tests, tags left out.
# UniProt P18054, whole entry: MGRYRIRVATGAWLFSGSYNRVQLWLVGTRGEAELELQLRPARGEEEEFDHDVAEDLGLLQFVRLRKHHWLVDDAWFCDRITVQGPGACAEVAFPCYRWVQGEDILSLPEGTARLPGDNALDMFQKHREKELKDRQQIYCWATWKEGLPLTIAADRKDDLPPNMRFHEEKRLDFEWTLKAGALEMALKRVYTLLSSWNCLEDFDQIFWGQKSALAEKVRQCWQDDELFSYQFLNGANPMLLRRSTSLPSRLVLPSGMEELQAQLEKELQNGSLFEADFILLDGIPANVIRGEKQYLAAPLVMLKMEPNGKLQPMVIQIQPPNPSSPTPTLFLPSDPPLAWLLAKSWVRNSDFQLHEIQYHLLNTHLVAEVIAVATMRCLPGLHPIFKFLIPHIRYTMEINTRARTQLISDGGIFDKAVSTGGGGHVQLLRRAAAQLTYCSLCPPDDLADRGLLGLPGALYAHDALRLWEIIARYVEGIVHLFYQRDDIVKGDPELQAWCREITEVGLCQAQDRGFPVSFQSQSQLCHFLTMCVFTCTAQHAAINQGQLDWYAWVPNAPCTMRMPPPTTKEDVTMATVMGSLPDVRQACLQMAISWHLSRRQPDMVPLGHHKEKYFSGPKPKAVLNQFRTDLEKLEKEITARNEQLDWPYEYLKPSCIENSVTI
# Only a part is listed here, and it is no random draw. Activity calls are given as the source filed them. The call rests on the fitted dose curve; in most records, active means well fitted inhibition curve with a large enough effect; inconclusive means small, poorly fitted or top-dose-only effect; inactive means flat fitted curve, though single readings scatter.
# Target: Polyunsaturated fatty acid lipoxygenase ALOX12 (Homo sapiens) (UniProt P18054)
# Assay: qHTS Assay for Inhibitors of 12-hLO (12-human lipoxygenase); further: nearly all actives have a fitted effect of over 55% in size
# Details: purified 12-hLO, xylenol orange hydroperoxide absorbance; at 11.4 µM (top of the series)
# Excerpt: Assay Provider: Holman, T.R., University of California, Santa Cruz Screening Center PI: Austin, C.P. Screening Center: NIH Chemical Genomics Center [NCGC] Human lipoxygenase 12hLO is a member of the closely related lipoxygenase family of enzymes which catalyze the site-specific oxidation of arachidonic acid to various hormone precursor molecules and as such is a candidate for drug development in a variety of disease areas, such as cancer and inflammation. Inhibition of 12hLO activity was screened by utilizing arachidonic acid as a substrate. The extent of hydroperoxide product formation was measured by a secondary chromogenic reaction in which xylenol orange (XO, Sigma-Aldrich, cat. number 39,818-7) reacts with the ferric ions produced from the reaction between the hydroperoxide and ferrous ions. The Fe(III)-XO complex is characterized with red-shifted absorbance at 560 nm. A purified preparation of human 12hLO was supplied by Professor Ted Holman, University of California, Santa Cruz.
# Assay Protocol: Buffer: 25 mM Hepes pH 7.0, 0.01% Triton X-100. Reagents/Controls: Buffer in columns 3 and 4 as negative control (no enzyme). […] The absorbance at 405 and 573 nm were measured using ViewLux (Perkin-Elmer) High-throughput CCD imager and absorbance protocol settings. The 573-to-405 absorbance ratio was used to compute reaction progress.
# On the % scale 0 is the no-effect control and ±100 the full control effect.
row,Structure (SMILES),"activity change, negative = inhibition"
1,NC(=O)Nc1cc([As](=O)(O)O)cc(I)c1O,inactive: 1.37%
